We go through 1 compound from patent US20190365710A1, “METHODS OF TREATING CANCER” (GlaxoSmithKline Intellectual Property Development Limited, priority 2016, published 2019).

Chains of the proteins cited; added tags and fusions are not shown. Lines headed by an entry give the natural chain unless they say otherwise; changes in a name come on top.
UniProt Q96LA8, whole entry: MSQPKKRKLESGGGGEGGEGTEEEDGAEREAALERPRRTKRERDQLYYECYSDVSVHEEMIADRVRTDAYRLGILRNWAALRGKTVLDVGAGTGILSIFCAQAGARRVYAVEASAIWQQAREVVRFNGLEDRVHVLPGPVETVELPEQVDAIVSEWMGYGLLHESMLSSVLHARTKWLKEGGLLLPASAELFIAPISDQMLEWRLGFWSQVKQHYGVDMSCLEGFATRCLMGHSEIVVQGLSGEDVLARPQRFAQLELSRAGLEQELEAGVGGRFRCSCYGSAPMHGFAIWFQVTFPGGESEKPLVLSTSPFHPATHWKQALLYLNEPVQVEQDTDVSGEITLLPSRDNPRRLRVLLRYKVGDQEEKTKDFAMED
UniProt Q86X55: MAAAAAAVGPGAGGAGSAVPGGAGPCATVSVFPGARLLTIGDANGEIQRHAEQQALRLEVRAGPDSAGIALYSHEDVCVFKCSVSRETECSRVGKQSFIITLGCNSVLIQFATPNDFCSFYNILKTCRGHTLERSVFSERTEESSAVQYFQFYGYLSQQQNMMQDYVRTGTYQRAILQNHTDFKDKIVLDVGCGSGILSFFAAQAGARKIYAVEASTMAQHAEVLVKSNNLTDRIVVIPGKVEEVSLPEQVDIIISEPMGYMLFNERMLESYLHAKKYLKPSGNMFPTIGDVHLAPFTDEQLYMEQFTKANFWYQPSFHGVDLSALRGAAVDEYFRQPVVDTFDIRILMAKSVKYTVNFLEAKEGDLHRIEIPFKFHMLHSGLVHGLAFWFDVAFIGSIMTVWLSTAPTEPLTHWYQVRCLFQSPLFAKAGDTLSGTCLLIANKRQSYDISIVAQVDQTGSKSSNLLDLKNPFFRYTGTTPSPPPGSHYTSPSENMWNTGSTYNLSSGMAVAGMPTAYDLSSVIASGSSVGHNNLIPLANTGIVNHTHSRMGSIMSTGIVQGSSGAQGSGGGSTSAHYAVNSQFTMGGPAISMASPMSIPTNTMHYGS
UniProt Q9NR22, whole entry: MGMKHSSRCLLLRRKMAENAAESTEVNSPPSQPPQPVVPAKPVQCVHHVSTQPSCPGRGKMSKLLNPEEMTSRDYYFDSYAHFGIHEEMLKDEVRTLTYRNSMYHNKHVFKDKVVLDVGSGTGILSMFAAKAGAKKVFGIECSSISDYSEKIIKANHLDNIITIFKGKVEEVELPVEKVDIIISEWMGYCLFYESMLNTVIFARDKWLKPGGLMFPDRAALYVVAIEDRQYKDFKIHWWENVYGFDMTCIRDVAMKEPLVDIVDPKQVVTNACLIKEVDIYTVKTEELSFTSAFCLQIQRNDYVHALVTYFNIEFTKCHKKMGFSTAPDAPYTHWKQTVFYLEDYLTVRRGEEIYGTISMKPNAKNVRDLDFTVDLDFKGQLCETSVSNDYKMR
UniProt O60678: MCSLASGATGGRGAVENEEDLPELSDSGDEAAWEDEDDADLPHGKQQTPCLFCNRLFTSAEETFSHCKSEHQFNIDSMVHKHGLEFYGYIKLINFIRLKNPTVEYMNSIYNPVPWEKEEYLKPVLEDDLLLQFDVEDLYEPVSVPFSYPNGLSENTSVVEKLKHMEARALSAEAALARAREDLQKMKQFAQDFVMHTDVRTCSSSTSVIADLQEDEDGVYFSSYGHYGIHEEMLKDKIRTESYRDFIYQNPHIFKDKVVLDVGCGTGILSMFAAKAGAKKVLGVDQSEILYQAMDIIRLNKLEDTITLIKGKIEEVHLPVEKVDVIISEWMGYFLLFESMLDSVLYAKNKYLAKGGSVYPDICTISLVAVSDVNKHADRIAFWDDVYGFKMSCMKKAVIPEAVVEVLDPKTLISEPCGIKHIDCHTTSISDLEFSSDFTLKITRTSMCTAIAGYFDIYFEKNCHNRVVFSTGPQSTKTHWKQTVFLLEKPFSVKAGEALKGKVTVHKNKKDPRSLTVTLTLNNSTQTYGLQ

The structures appear in SMILES notation.

Experiment [1] addresses PRMT6 (Homo sapiens, UniProt Q96LA8). As to conditions: increasing Enzyme:SAM:Compound A preincubation times.
For experiment [2], the target named is PRMT4 (Homo sapiens, UniProt Q86X55).
The target in experiment [3] is PRMT8 (Homo sapiens, UniProt Q9NR22). The following applies: increasing Enzyme:SAM:Compound A preincubation times.
Experiment [4] addresses PRMT3 (Homo sapiens, UniProt O60678).
[5] abbreviates: 60 minute SAM:Enzyme:Compound A preincubation.
The mark [6] stands for this setting: increasing Enzyme:SAM:Compound A preincubation times.

For `CCOCC1(COCC)CCC(c2n[nH]cc2CN(C)CCNC)CC1` [Compound A], the “time dependence of inhibition” value in experiment [1] is recorded as “time dependent inhibitor”; in experiment [2] (setting [6]), “time dependent inhibitor”; in experiment [3], “time dependent inhibitor”; in experiment [4] (setting [6]) it was “no time dependent behavior”. Also, the inhibition of activity entry in experiment [2] (setting [5]) and in experiment [4] (setting [5]) was “inhibited the activity” throughout.
